Data on 1 substance can be found in US20090215857A1 (Pfizer Products Inc., priority 2005, published 2009).

Amino acid sequences for entries named in this document (tags omitted).
UniProt P23975, whole entry: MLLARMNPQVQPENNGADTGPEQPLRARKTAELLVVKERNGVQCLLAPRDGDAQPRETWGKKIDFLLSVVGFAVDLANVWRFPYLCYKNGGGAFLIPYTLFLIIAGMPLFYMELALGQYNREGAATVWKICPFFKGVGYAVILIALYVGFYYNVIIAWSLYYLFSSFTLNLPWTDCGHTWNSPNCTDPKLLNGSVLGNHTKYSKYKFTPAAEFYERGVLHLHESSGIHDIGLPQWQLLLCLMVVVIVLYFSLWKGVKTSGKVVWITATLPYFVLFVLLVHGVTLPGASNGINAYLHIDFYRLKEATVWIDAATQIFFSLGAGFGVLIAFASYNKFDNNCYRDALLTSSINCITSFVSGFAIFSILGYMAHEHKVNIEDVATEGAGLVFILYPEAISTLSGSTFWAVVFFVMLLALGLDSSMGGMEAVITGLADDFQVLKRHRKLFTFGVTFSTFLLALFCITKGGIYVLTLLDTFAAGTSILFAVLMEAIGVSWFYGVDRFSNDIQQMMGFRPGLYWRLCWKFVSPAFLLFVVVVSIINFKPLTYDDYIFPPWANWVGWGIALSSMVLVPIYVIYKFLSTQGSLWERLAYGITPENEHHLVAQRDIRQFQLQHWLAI
UniProt P31645, whole entry: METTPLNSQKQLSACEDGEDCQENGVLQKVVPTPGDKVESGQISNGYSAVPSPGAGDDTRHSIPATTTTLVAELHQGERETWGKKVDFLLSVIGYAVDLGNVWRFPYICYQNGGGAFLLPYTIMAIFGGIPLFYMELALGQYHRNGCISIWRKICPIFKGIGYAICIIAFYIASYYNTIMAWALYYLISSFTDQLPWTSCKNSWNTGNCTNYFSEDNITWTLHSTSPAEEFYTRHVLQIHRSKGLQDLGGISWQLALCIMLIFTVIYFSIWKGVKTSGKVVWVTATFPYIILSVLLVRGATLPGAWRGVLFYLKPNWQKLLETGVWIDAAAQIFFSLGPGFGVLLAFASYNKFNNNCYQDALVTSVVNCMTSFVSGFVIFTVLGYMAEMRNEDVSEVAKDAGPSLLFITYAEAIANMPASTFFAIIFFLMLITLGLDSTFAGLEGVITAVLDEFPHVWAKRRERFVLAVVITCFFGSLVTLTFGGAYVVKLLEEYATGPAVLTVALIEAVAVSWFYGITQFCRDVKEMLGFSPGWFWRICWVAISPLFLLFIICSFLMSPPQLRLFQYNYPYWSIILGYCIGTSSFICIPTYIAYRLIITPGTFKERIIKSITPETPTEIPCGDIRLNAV

Assay [1] has as its target T1, human norepinephrine transporter (Homo sapiens, UniProt P23975).
T1 construct: expressed in transfected cells; host or cells: HEK-293
The assay is described as follows: hNET receptor binding ([125I]-RTI-55 radioligand). Conditions: membranes of HEK-293 cells transfected with human norepinephrine transporter cDNA; 50 pM [125I]-RTI-55; IC50 converted by Cheng-Prusoff; read-out: NET Ki. The protocol: Cell pastes of HEK-293 cells transfected with a human norepinephrine transporter cDNA were prepared. The cell pastes were resuspended in 400 to 700 ml of Krebs-HEPES assay buffer (25 mM HEPES, 122 mM NaCl, 3 mM KCl, 1.2 mM MgSO4, 1.3 mM CaCl2, and 11 mM glucose, pH 7.4) with a Polytron homogenizer at setting 7 for 30 seconds. Aliquots of membranes (5 mg/ml protein) were stored in liquid nitrogen until used.
The binding assay was set up in Beckman deep-well polypropylene plates with a total volume of 250 μl containing: test compound (10^−5M to 10^−12M), cell membranes, and 50 pM [^125I]-RTI-55 (Perkin Elmer, NEX-272; specific activity 2200 Ci/mmol). The reaction was incubated by gentle agitation for 90 minutes at room temperature and was terminated by filtration through Whatman GF/C filter plates using a Brandel 96-well plate harvester. Scintillation fluid (100 μl) was added to each well, and bound [^125I]-RTI-55 was determined using a Wallac Trilux Beta Plate Counter. Test compounds were run in duplicate, and specific binding was defined as the difference between binding in the presence and absence of 10 μM desipramine.
Excel and GraphPad Prism software were used for data calculation and analysis. IC50 values were converted to K, values using the Cheng-Prusoff equation.

Assay [2] concerns the target T2, human serotonin transporter (Homo sapiens, UniProt P31645).
T2 construct: expressed in transfected cells; host or cells: HEK-293
The assay is described as follows: hSERT receptor binding ([125I]-RTI-55 radioligand). Conditions: membranes of HEK-293 cells transfected with human serotonin transporter cDNA; 50 pM [125I]-RTI-55; IC50 converted by Cheng-Prusoff; read-out: SERT Ki. The protocol:
Cell pastes of HEK-293 cells transfected with a human serotonin transporter cDNA were prepared. The cell pastes were resuspended in 400 to 700 ml of Krebs-HEPES assay buffer (25 mM HEPES, 122 mM NaCl, 3 mM KCl, 1.2 mM MgSO4, 1.3 mM CaCl2, and 11 mM glucose, pH 7.4) with a Polytron homogenizer at Setting 7 for 30 seconds. Aliquots of membranes (˜2.5 mg/ml protein) were stored in liquid nitrogen until used.
Assays were set up in FlashPlates pre-coated with 0.1% PEI in a total volume of 250 μl containing: test compound (10^−5M to 10^−12M), cell membranes, and 50 pM [^125I]-RTI-55 (Perkin Elmer, NEX-272; specific activity 2200 Ci/mmol). The reaction was incubated and gently agitated for 90 minutes at room temperature, and terminated by removal of assay volume. Plates were covered, and bound [^125I]-RTI-55 was determined using a Wallac Trilux Beta Plate Counter. Test compounds were run in duplicate, and specific binding was defined as the difference between binding in the presence and absence of 10 μM citalopram.
Excel and GraphPad Prism software were used for data calculation and analysis. IC50 values were converted to Ki values using the Cheng-Prusoff equation.

The term Ki denotes a measure of affinity in units of concentration, obtained from inhibition or displacement. Consider “(S)-3-(4-Fluoro-2′-methoxy-5′-biphenyl-2-ylmethoxy)-pyrrolidine [Example D-96]”, for which the inhibitory constant (Ki) was determined as 591 nM in assay [1] and 1380 nM in assay [2].
